Source: US20100322948A1, “Bone morphogenetic protein (BMP)-binding domains of proteins of the repulsive guidance molecule (RGM) protein family and functional fragments thereof, and use of same” (ABBOTT GMBH & CO. KG, priority 2007, published 2010)

Test system: BMP signalling (rhBMP-2-induced luciferase activity)
Assay: BRE-Luc assay on BMP signalling in BMP-responsive C3H10-B12 cells
Assay type: cell-based
Details: rhBMP-2 from 0 to 50 ng/ml, FIG. 9
Protocol: Evaluation of the Agonistic or Antagonistic Effect of h RMG A on BMP Signalling using BRE-Luc Assay
a) Materials: • Three compounds were provided at 200 μg/ml.
fragment #788 (IgK/hRGM A 47-422/Xa cleavage site/Fc) • recombinant h BMP-2 (from CHO cells; #355-BM) and monoclonal anti-human BMP2/4 antibodies (#MAB3552) were obtained from R&D Systems Europe, Lille, France • Bright-Glo Luciferase assay kit were purchased from Promega
BMP-responsive C3H10-B12 (Logeart-Avramoglou D, Bourguignon M, Oudina K, Ten Dijke P, Petite H. An assay for the determination of biologically active bone morphogenetic proteins using cells transfected with an inhibitor of differentiation promoter-luciferase construct. Anal Biochem 2006;349:78-86) were plated in 96-wells plates at a density of 4×10^4 cells/cm^2 and cultured in BME (BME=Eagle's Basal Medium) (supplemented with 10% FBS), in a humidified, 37° C., 5% CO2/95% air environment for 24 h. Cells were rinsed twice with PBS and cultured under BME/0.5% (w/v) BSA containing either each AS compounds tested or anti-human BMP2/4 antibodies (from 0.01 to 10,000 ng/ml) without or with rhBMP-2 (at 50 ng/ml) for 24 h before being assayed for the contained luciferase activity. All experiments were performed in triplicate, and were repeated at two separate times.

B1: Recombinant human BMP-2 (ligand, UniProt P12643 283-396, looked up)
chain: QAKHKQRKRLKSSCKRHPLYVDFSDVGWNDWIVAPPGYHAFYCHGECPFPLADHLNSTNHAIVQTLVNSVNSKIPKACCVPTELSAISMLYLDENEKVVLKNYQDMVVEGCGCR
notes: Bought protein; also called rhBMP-2; recombinant h BMP-2
Question: For B1, which luciferase activity response is on record?
Answer: dose-dependent response
